Results from patent US9856279B2 (AGIOS PHARMACEUTICALS, INC, priority 2011, dated 2018).

Amino acid sequences for entries named in this document (tags omitted). A change or cut given only in a name is not applied to a line headed by its entry.
UniProt O75874, whole entry, looked up: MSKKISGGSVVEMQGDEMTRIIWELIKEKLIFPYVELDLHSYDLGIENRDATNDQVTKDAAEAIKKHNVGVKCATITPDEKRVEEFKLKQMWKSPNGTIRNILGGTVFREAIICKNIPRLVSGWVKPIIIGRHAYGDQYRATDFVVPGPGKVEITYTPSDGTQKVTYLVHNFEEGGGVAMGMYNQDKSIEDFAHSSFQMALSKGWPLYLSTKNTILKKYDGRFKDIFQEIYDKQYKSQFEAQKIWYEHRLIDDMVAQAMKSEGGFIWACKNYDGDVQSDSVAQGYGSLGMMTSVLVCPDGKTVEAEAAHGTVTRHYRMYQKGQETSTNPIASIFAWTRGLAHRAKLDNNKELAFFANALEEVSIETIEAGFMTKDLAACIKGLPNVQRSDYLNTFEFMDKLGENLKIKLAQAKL
UniProt O75874, whole entry R132H: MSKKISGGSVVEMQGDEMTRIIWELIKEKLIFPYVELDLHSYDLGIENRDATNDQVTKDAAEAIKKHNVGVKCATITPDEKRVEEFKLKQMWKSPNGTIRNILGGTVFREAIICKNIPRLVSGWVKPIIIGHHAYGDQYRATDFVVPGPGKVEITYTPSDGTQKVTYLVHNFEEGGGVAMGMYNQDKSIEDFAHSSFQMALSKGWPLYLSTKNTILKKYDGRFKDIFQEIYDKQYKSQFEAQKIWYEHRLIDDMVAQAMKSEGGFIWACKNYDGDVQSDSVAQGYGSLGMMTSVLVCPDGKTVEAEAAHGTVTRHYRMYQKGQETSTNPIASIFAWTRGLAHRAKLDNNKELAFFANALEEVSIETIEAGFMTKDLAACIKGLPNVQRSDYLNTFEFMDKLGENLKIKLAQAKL

Legend:
HT1080 cells = HT1080 cells (UniProt O75874); experiment: Cellular assay for IDH1m inhibitors: inhibition of 2-HG production (LC-MS, 48 hours) in HT1080 cells; conditions: read-out: HT1080 IC50
IDH1 R132H = IDH1 R132H (Homo sapiens, UniProt O75874, R132H); experiment: Assay for IDH1 R132H inhibitors (NADPH/aKG, resazurin detection); conditions: read-out: IDH1R132H IC50; enzyme assay of Example 12
U87MG cells = U87MG cells (UniProt O75874); experiment: Cellular assay for IDH1m inhibitors: inhibition of 2-HG production (LC-MS, 48 hours) in U87MG cells; conditions: read-out: U87R132H IC50

Measured: IC50

C=Cc1ccnc(Nc2cc(C#N)c(N3CCN(C(=O)C[C@H]4CCO4)[C@H](C4CC4)C3)nc2C2CC2)c1
< 500 nM: all assays above
